Columns and labels:
[1] = Lipophilicity, octanol/water partition (ICP-MS); assay type: physicochemical; settings: octanol/aqueous NaCl, 48 h shaking, 25°C
Procedure: Log Po/w is the partition coefficient between octanol and water. Briefly, a suitable amount of stock solution of the Ru(II) complex in aqueous NaCl was added to an equal volume of octanol, and the mixture was shaken for 48 h at 200 rpm at 25°C to allow partitioning. The aqueous layer was separated from the octanol layer after the sample was centrifuged at 3000 rpm for 10 min. The Ru(II) content in the aqueous layer was measured by ICP-MS. Finally, Log Po/w values were calculated according to the equation of Log Po/w = Log ([Ru]o/[Ru]w).

A549 cells [2] = experiment: Cellular uptake and subcellular distribution by ICP-MS; assay type: cell-based, human; settings: 20 μM, 6 h
Procedure: A549 cells were seeded into six-well plates (5.0 × 10^5 cells per well) and grown overnight at 37°C in a 5% CO2 incubator. The cells were incubated with the different concentrations (5, 10, 15, and 20 μM) of Ru(II) complexes for different time intervals (1, 3, and 6 h). After the incubation, the cells were harvested and washed twice with PBS. Cell Mitochondria Isolation Kit was used to extract the nuclear, mitochondrial, and cytoplasmic fractions of the A549 cells. The pellets were digested with 3 mL concentrated nitric acid and 1 mL perhydrol for 24 h and then diluted to 5 mL with ultrapure water. Finally, ICP-MS was used to determine the amount of Ru(II) complexes uptaken by A549 cells.
It is generally acknowledged that the cellular uptake feature of transition metal-based compounds is an essential factor for their biological activities. As repeatedly reported by previous ruthenium complex-related studies, the more cellular uptake results in higher cytotoxicity. The cellular ruthenium concentration was determined by using ICP-MS after 1, 3, and 6 h of exposure to 5, 10, 15, and 20 μM Ru(II) complexes (Figure 2), respectively, and the results were reported as ng of ruthenium per 10^6 cell number. […] The subcellular distribution of Ru-1 in A549 cells was further studied.

A549 cells [3] = experiment: Mitochondrial membrane potential, JC-1 flow cytometry; assay type: cell-based, human; settings: 12 h
Procedure: The mitochondrial membrane potential (MMP) of A549 cells was analyzed by using an inverted fluorescence microscope and flow cytometry. […] For microscope observation, the collected cells were incubated in complete medium containing JC-1 (10 μg/mL) for 30 min and washed with PBS twice and then imaged by an inverted fluorescence microscope (Nikon, Japan). For flow cytometry analysis, the cells were trypsinized and washed twice with PBS and then incubated in 500 μL PBS containing JC-1 (10 μg/mL) for 30 min at 37°C. The cells were analyzed by flow cytometer immediately. The intracellular ROS level of A549 cells was detected after DCFH-DA stain, as illustrated in our new publication.

[4] = test system: A549 (human lung carcinoma); experiment: MTT cytotoxicity assay, A549; assay type: cell-based; settings: 48 h

O=C1[O][Ru][O]c2ccccc21.c1ccc(-c2ccnc3c2ccc2c(-c4ccccc4)ccnc23)cc1.c1ccc(-c2ccnc3c2ccc2c(-c4ccccc4)ccnc23)cc1 [Ru-1, [Ru(dip)2(SA)]]
log Po/w [1]: 1.4 ± 0.1 | cell entry relative to Ru-2 (A549 cells [2]): 1.8 fold | percentage of green fluorescence (JC-1, MMP decline) (A549 cells [3]; 5 μM): 28.2% | percentage of green fluorescence (JC-1, MMP decline) (A549 cells [3]; 10 μM): 38.4% | percentage of green fluorescence (JC-1, MMP decline) (A549 cells [3]; 20 μM): 70.5% | SI (selectivity index) = IC50 (BEAS-2B)/IC50 (A549) [4]: 4.9

Reference: publication PMC7448123, “Ru(II) Complexes Bearing O, O-Chelated Ligands Induced Apoptosis in A549 Cells through the Mitochondrial Apoptotic Pathway” (Bioinorganic Chemistry and Applications, 2020)
